Laboratory results taken from patent publication US20240199555A1, “APPLICATIONS OF BIASED LIGANDS OF THE SEROTONIN 5-HT7 RECEPTOR FOR THE TREATMENT OF PAIN, MULTIPLE SCLEROSIS AND THE CONTROL OF THERMOREGULATION” (Centre National de la Recherche Scientifique, priority 2021, published 2024).

Sequences of proteins named here, by UniProt entry; tags and fusion partners are left off. Residues count along the entry.
UniProt P28335, 33-458 limits assumed: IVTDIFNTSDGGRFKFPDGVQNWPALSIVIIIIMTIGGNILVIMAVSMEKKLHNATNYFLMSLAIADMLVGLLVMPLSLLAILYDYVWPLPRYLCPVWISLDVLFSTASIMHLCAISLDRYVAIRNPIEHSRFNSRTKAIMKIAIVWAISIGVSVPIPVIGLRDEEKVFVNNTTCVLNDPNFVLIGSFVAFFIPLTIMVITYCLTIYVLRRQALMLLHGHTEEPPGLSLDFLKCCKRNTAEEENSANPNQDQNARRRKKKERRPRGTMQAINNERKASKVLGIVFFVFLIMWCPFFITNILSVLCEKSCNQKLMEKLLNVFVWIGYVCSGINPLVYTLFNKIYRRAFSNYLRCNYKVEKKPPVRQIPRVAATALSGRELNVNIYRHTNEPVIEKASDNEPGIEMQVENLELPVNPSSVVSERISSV
UniProt P08908, whole entry: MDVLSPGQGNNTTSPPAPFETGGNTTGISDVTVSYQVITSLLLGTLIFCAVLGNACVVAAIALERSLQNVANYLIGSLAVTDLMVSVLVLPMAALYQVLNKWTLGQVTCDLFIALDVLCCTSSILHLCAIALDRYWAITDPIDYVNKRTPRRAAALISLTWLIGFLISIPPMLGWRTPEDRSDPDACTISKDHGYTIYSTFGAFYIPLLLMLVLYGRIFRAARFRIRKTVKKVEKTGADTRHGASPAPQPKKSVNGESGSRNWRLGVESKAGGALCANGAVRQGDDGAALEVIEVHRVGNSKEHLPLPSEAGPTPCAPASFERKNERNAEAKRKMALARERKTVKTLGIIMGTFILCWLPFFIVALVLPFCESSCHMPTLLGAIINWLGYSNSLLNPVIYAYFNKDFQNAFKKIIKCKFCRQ
UniProt P28223, whole entry: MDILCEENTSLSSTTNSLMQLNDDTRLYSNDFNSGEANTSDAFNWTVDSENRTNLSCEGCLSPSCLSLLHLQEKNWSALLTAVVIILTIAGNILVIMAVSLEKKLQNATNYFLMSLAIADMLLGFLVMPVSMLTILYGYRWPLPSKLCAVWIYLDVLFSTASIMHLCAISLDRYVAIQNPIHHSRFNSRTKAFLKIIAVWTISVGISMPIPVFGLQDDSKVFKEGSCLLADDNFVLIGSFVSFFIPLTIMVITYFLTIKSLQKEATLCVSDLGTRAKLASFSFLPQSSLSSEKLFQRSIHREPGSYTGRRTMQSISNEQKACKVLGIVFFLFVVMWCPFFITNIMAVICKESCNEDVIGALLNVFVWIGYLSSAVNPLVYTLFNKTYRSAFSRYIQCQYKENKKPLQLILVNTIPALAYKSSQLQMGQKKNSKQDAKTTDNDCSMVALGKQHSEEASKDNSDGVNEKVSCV

Legend:
[1] = target: human 5-HT2Cedited receptor (Homo sapiens, UniProt P28335); test: Radioligand binding competition, 5-HT2Cedited; conditions: selectivity panel; for IC50: read-out: RLB 5-HT2Cedited IC50; for Ki: read-out: RLB 5-HT2Cedited Ki
human 5-HT1A receptor = human 5-HT1A receptor (Homo sapiens (Human), UniProt P08908); test: Radioligand binding competition, 5-HT1A; conditions: selectivity panel; for IC50: read-out: RLB 5-HT1A IC50; for Ki: read-out: RLB 5-HT1A Ki
Protocol: (§1) FIG. 14: Testing of 8 molecules for radioligand binding competition activity on recombinant human 5-HT1A, 5-HT2A, 5-HT2Cedited, 5-HT6, 5-HT7 and D2(long) receptors using filtration binding assays.
(§2) Radioligand Binding experiments were conducted with Epics Therapeutics membrane preparations. Receptor accession numbers, cellular background and reference compounds are shown in this table.
(§3) The new compounds have been tested by radioligand binding competition activity at the human 5-HT1A (FAST-0500B), 5-HT2A (FAST-0505B), 5-HT2Cedited (FAST-0507B), 5-HT6 (FAST-0509B), 5-HT7a (FAST-05111B) and D2(long) (FAST-0101B) receptors at seven (7) concentrations, in duplicate. […] Reference values thus obtained for the test were compared to historical values obtained from the same receptor and used to validate the experimental session. For replicate determinations, the maximum variability tolerated in the test was of +/−20% around the average of the replicates.
(§4) Dose-response data from test compounds were analyzed with XLfit (IDBS) software using nonlinear regression applied to a sigmoidal dose-response model and the following equation: • XL Fit fit Model 203: 4 Parameter Logistic Model • A: Bottom • B: TOP • C: LogEC50 • D: Hill

human 5-HT2A receptor = human 5-HT2A receptor (Homo sapiens (Human), UniProt P28223); test: Radioligand binding competition, 5-HT2A; conditions: selectivity panel; for IC50: read-out: RLB 5-HT2A IC50; for Ki: read-out: RLB 5-HT2A Ki
Protocol: as §1, §2, §3, §4

O=c1[nH]c2ccccc2n1CCCCCN1CCN(c2ccc(Cl)c(Cl)c2)CC1
IC50 [1]: 196 nM
Ki [1]: 32 nM
IC50 (human 5-HT1A receptor): 32.8 nM
Ki (human 5-HT1A receptor): 16.4 nM
IC50 (human 5-HT2A receptor): 38.5 nM
Ki (human 5-HT2A receptor): 6.3 nM

Cc1ccc(N2CCN(CCCCCn3c(=O)[nH]c4ccccc43)CC2)cc1
IC50 [1]: 1250 nM
Ki [1]: 205 nM
IC50 (human 5-HT1A receptor): 482 nM
Ki (human 5-HT1A receptor): 241 nM
IC50 (human 5-HT2A receptor): 47.5 nM
Ki (human 5-HT2A receptor): 7.8 nM
